Source: publication PMC6538996, “Evaluating the In Vivo Specificity of [^18F]UCB-H for the SV2A Protein, Compared with SV2B and SV2C in Rats Using microPET” (Molecules, 2019)

Amino acid sequences for entries named in this document (tags omitted).
UniProt Q02563, whole entry: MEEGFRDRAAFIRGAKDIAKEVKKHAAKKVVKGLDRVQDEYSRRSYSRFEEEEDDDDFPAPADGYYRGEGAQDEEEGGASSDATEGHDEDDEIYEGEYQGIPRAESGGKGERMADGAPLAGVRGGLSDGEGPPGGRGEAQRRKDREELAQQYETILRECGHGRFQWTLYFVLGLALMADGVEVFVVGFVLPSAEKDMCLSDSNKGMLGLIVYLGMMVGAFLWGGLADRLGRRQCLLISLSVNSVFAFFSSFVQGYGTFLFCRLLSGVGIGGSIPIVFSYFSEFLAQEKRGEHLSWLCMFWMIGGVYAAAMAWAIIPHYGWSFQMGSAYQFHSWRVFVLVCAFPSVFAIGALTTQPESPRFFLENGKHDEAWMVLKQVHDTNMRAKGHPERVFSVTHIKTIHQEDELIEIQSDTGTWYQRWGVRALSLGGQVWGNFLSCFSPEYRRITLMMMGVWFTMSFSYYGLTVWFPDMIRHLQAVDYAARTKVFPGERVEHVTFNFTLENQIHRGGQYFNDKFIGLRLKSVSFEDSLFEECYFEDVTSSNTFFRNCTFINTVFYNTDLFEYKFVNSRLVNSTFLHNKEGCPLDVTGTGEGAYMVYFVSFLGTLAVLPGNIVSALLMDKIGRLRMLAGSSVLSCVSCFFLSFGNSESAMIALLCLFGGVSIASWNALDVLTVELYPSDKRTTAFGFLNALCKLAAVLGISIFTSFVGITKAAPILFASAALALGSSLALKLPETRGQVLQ

Molecular target: T1, [^18F]UCB-H binding in rat brain (Rattus norvegicus, UniProt Q02563)
T1 construct: from tissue; host or cells: brain of living Sprague Dawley rats (microPET)
Assay: microPET blocking assay of [18F]UCB-H (Vt, Logan plot, PBIF) after pre-treatment with competitors
Assay type: in vivo, Sprague Dawley rats
Conditions: i.p. pre-treatment 30 min before PET, SV2AL 10 mg/kg, SV2BL and SV2CL 3 mg/kg
Method: The competitors were prepared daily in a vehicle composed of distilled water containing 1% methyl cellulose (viscosity: 15 cP, Sigma-Aldrich, Overijse, Belgium) and 5% dimethyl sulphoxide (DMSO, Sigma-Aldrich, Belgium). The concentrations differed depending on the product specifications and their respective pharmacokinetics, provided by UCB Pharma s.a. The dosing used was 10 mg/kg for SV2AL, 3 mg/kg for SV2BL, and 3 mg/kg for SV2CL. All solutions were administered through the intraperitoneal (i.p.) route in a total volume of 1 mL per kg of body weight. The animals used as a control group (vehicle) received an equal volume of vehicle through the same route of administration.
The animals (n = 5 per group) were anesthetized using 4% isoflurane in air at a flow rate of 1 L/min during induction and 1.5% to 2% isoflurane in air at 0.6 L/min during maintenance. Respiration rate and rectal temperature were continuously measured using a physiological monitoring system (Minerve, France). The temperature was maintained at 37 ± 0.5 °C using an air warming system.
MicroPET scans were performed with a Siemens FOCUS 120 microPET (Siemens, Knoxville, TN, USA). The animals were anesthetized and pre-treated i.p. with vehicle, SV2AL, SV2BL, or SV2CL. Thirty minutes later, they were installed in the microPET scanner and [^18F]UCB-H was injected via the lateral tail vein (44.7 ± 3 MBq, 0.55 mL), simultaneously starting a 60 min emission scan, in list mode. Finally, a 10 min transmission scan was performed in a single event acquisition mode, using a ^57Co source. The acquired data were then reframed as follows: 6 × 5 s, 6 × 10 s, 3 × 20 s, 5 × 30 s, 5 × 60 s, 8 × 150 s, and 6 × 300 s. For each frame, a total of 95 trans-axial slices were obtained using Fourier rebining (FORE), followed by 2D ramp filtered backprojection (FBP), in 256 × 256 matrix. The slice thickness was 0.796 mm and the in-slice pixel size was 0.433 mm.
Immediately after the PET acquisition, the anesthetized rats were transferred into a 9.4 Tesla MRI horizontal bore system (Agilent Technologies, Palo Alto, CA, USA), with a 72 mm inner diameter volumetric coil (Rapid Biomedical GmbH, Würzurg, Germany). Anatomical T2-weighted brain images were obtained using a fast spin echo multi-slice sequence with the following parameters: TR = 2000 ms, TE = 40 ms, matrix = 256 × 256, FOV = 45 × 45 mm, 30 contiguous slices of thickness = 0.80 mm and in-plane voxel size = 0.176 × 0.176 mm.
PMOD software (Version 3.6, PMOD Technologies, Zurich, Switzerland) was used to process the imaging data. The structural MRI images were firstly co-registered to the corresponding PET images, and subsequently spatially normalized into the PMOD MRI T2 template. Finally, the inverse normalization parameters were calculated and applied to the PMOD rat brain atlas to bring it in the individual PET space.
Individual time-activity curves (TACs) were extracted for each ROIs and normalized by the body weight and the injected dose of radiotracer to be expressed as standardized uptake value (SUV). A population-based input function (PBIF) published by our laboratory was used to avoid arterial blood sampling during the acquisitions. The distribution volume (Vt), was determined by Logan plot kinetic modelling using the TACs and the PBIF. The equilibration time (t*) was fixed at 15 min (starting point of the range used in the multi-linear regression analysis).
The results are presented as mean (Vt) ± standard error of the mean (SEM). All the data were tested for normal distribution with Levene’s test for homogeneity, and with a Kolmogorov–Smirnov test for normality. Data were analyzed using one-way analysis of variance (ANOVA) followed by Scheffe post-hoc tests.

CC[C@@H](C(N)=O)N1CCCC1=O [SV2AL, levetiracetam]
percentage of reduction of [18F]UCB-H Vt vs vehicle, Caudate/Putamen (from mean Vt, n = 5): 46.2%
percentage of reduction of [18F]UCB-H Vt vs vehicle, Cortex (from mean Vt, n = 5): 42.7%
percentage of reduction of [18F]UCB-H Vt vs vehicle, Hippocampus (from mean Vt, n = 5): 46.8%
percentage of reduction of [18F]UCB-H Vt vs vehicle, Inferior colliculus (from mean Vt, n = 5): 49.1%
percentage of reduction of [18F]UCB-H Vt vs vehicle, Midbrain (from mean Vt, n = 5): 46.3%
percentage of reduction of [18F]UCB-H Vt vs vehicle, Superior colliculus (from mean Vt, n = 5): 50.4%
percentage of reduction of [18F]UCB-H Vt vs vehicle, Thalamus (from mean Vt, n = 5): 45.9%
percentage of reduction of [18F]UCB-H Vt vs vehicle, Whole brain (from mean Vt, n = 5): 42.3%
percentage of reduction of [18F]UCB-H Vt vs vehicle, Mean of the eight ROIs (mean of eight ROIs): 46.2%
